Data on 15 compounds can be found in PubChem BioAssay AID687 (PCMD, 2007).

Protein sequences, listed by entry. Tags and fused reporters are not part of them. Residues count along the entry.
UniProt P03951, 19-387 limits assumed: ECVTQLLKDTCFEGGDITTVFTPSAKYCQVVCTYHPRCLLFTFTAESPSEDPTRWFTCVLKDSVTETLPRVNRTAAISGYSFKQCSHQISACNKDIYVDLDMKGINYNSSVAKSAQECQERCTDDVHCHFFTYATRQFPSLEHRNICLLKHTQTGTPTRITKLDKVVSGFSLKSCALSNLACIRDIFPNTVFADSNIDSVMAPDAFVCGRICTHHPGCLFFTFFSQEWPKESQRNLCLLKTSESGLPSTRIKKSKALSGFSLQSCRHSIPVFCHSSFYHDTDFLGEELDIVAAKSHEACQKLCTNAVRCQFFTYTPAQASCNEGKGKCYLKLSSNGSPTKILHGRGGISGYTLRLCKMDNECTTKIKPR
UniProt P03951, 388-625 limits assumed: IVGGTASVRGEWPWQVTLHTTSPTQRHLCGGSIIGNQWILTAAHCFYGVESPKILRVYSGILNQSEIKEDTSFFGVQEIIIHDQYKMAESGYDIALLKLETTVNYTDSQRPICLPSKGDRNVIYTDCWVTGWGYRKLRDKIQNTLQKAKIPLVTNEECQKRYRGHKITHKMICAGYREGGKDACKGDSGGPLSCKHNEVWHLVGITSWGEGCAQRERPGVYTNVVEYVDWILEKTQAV

The structures appear in SMILES notation. This is a selection; strong and weak results do not stand in their true shares. Calls of active or inactive are those of the source.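 How the source made its calls: active means inhibition above 40% in the primary screen; inactive means the rest.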

This assay addresses Coagulation factor XI (Homo sapiens) (UniProt P03951). The experiment in a line: human FXIa protease inhibitors, primary screen, biochemical, single compound per well (AID 687).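 Further: 0% = enzyme without compound and 100% = blank wells lacking enzyme.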 Particulars: purified human FXIa, fluorogenic AMC substrate cleavage; at 10 µM; active compounds read high.
A word on the inhibition: it is the relative decrease from the control value, in per cent. With `CCc1ccc(OP(C)(=O)O)cc1`, the inhibition is inactive: 5.92%.
In the case of `COc1ccccc1OP(C)(=O)Nc1ccc(C)cc1C` (stereo not given), the inhibition was inactive: 0.41%.
To `Cc1c(NP(C)(=O)Oc2ccc(C(C)C)cc2)c(=O)n(-c2ccccc2)n1C` (stereo not given) belongs inactive: -7.25%; to `CN(C)CCOC(=O)C(O)(c1ccccc1)C1CCCC1` (stereo not given), inactive: -1.46%; to `COc1ccc(OP(C)(=O)Nc2ccccn2)cc1` (stereo not given), inactive: -2.13%.
Regarding `CP(=O)(Nc1ccc(Cl)cc1)Oc1ccc(F)cc1` (stereo not given), the inhibition is inactive: -13.4%.
On to `CC(C)(C)c1ccc(OP(C)(=O)O)cc1`, for which the inhibition is inactive: 0.38%.
As for `CP(=O)(OC12CC3CC(CC(C3)C1)C2)OC12CC3CC(CC(C3)C1)C2`, the inhibition is inactive: -3.83%.
To `CP(=O)(Nc1ccccc1)Oc1ccc(F)cc1` (stereo not given) belongs inactive: 5.13%; to `CCN(CC)CCCOC(=O)C(O)(c1ccccc1)C1CCCCC1` (stereo not given), inactive: -0.39%; to `Cc1cc(C)cc(OP(C)(=O)Nc2ccccn2)c1` (stereo not given), inactive: 6.24%.
To `Cc1cc(C)cc(OP(C)(=O)Nc2ccc(C)cc2C)c1` (stereo not given) belongs inactive: -1.61%; to `COc1ccccc1OP(C)(=O)Nc1c(C)cccc1C` (stereo not given), inactive: 6.71%; to `CP(=O)(Nc1ccccn1)Oc1ccc(Cl)cc1` (stereo not given), inactive: -5.35%.
To `COc1ccc(OP(C)(=O)Nc2cccc(F)c2)cc1` (stereo not given) belongs inactive: -2.95%.
